# Source: PubChem BioAssay (NCATS)
# Chains of the proteins cited; added tags and fusions are not shown.
# UniProt P04637, whole entry, looked up: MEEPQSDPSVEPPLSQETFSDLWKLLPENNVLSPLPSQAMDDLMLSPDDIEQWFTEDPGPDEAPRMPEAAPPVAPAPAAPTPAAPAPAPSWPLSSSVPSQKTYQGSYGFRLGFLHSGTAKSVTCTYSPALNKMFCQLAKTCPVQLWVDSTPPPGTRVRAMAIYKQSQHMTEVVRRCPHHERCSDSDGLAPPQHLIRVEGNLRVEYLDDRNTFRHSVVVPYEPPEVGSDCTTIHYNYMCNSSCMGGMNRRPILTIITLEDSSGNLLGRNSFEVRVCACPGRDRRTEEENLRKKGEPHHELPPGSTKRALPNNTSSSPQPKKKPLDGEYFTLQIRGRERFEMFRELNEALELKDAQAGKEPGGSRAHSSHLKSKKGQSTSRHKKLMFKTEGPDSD
# Where “and” joins values, the source holds several entries; their conditions need not be identical. Identical values can stand only once. The entries are a selection whose mix differs from that of the whole data set. Records with an inconclusive call do not appear. Calls of active or inactive are those of the source. Unless noted, calls follow the shape of the dose curve; as a rule, active = well fitted curve in the direction sought with a large enough effect; inconclusive = small, poorly fitted or top-dose-only effect, or another doubt; inactive = no such curve, though single readings can be large; an effect the other way counts as inactive or inconclusive.
# Assays:
# [1] = molecular target: Cellular tumor antigen p53 (Homo sapiens) (UniProt P04637); experiment: Primary qHTS for small molecule compounds that upregulate eGFP-tagged delta133p53alpha (in N-terminal) cells. (AID 2060322); details: NCI-H358 eGFP-delta133p53alpha fluorescence, 24 h; active compounds read high;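 also: cells pre-induced with doxycycline then dosed without doxycycline; 0% = DMSO vehicle and 100% = reference activator; nearly all actives have a fitted effect of over 75% in size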
# [2] = molecular target: Aldehyde dehydrogenase, mitochondrial (Homo sapiens) (UniProt P05091); experiment: qHTS for Inhibitors of the Aldehyde Dehydrogenase Family (ALDH2) Primary screen (AID 2061308); details: ALDH2 enzyme inhibition qHTS, 1536-well; at 56 µM (top of the series);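 also: plate controls were vehicle for no effect and reference inhibitor for full effect; nearly all actives have a fitted effect of over 55% in size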
# [3] = molecular target: Retinaldehyde dehydrogenase 3 (Homo sapiens) (UniProt P47895); experiment: qHTS for Inhibitors of the Aldehyde Dehydrogenase Family (ALDH1A3) Validation screen (AID 2061312); details: ALDH1A3 enzyme inhibition qHTS validation, fluorescence; at 42.4 µM (top of the series) unless noted; also: % is scaled to controls: 0 for no effect and ±100 for the full control effect; nearly all actives have a fitted effect of over 45% in size
# [4] = molecular target: Retinaldehyde dehydrogenase 3 (Homo sapiens) (UniProt P47895); experiment: qHTS for Inhibitors of the Aldehyde Dehydrogenase Family (ALDH1A3) Primary screen (AID 2061315);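 also: plate controls were DMSO vehicle for no effect and reference inhibitor for full effect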; details: S. pombe CHP2027 cells, fluorescence laser cytometry, 18 h; at 56 µM (top of the series)
# [5] = BET inhibitor-based combinations targeting novel dependencies in MECOM-rearranged (r) AML: UCSD-AML1 cell line (AID 2202235); details: UCSD-AML1 AML cells viability, CellTiter-Glo, 48 h; series mostly up to 46 µM; also: nearly all actives have a fitted effect of over 40% in size; also: potency is read from the fitted curve at half-maximal effect
# [6] = molecular target: Cellular tumor antigen p53 (Homo sapiens) (UniProt P04637); experiment: Primary qHTS for small molecule compounds that upregulate eGFP-tagged delta133p53alpha (in C-terminal) cells. (AID 2060324); details: NCI-H358 delta133p53alpha-eGFP (C-terminal tag), GFP fluorescence imaging, 24 h, percent of 5-azacytidine response, DMSO as zero; at 57.5 µM (top of the series);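 also: 0% = DMSO wells and 100% = 57.5 µM 5-azacytidine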
# Outline: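 Concentration-response screen: compounds titrated onto pre-induced NCI-H358 D133p53a-eGFP cells, incubated one day, fixed with 3.5% PFA. Per-cell GFP peak intensity was gated, then normalized against intraplate controls.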
# [7] = molecular target: Aldehyde dehydrogenase, mitochondrial (Homo sapiens) (UniProt P05091); experiment: qHTS for Inhibitors of the Aldehyde Dehydrogenase Family (ALDH2) Validation screens (AID 2061302; active = well fitted inhibition curve with a large enough effect; title and protocol of this record describe different tests;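 also: plate controls were DMSO vehicle for no effect and maximal DPI positive control response for full effect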); details: S. pombe CHP2027 cells, fluorescence cytometry, 18 h; at 42.6 µM (top of the series)
# [8] = BET inhibitor-based combinations targeting novel dependencies in MECOM-rearranged (r) AML: MV-4-11 cell line (AID 2202233); details: MV-4-11 AML viability, CellTiter-Glo luminescence, 48 h; also: potency is read from the fitted curve at half-maximal effect; nearly all actives have a fitted effect of over 45% in size
# [9] = BET inhibitor-based combinations targeting novel dependencies in MECOM-rearranged (r) AML: HNT-34 cell line (AID 2202234); details: HNT-34 AML viability, CellTiter-Glo luminescence, 48 h; also: potency is read from the fitted curve at half-maximal effect; nearly all actives have a fitted effect of over 35% in size
# [10] = BET inhibitor-based combinations targeting novel dependencies in MECOM-rearranged (r) AML: AML-191 cell line (AID 2202236; also: potency is read from the fitted curve at half-maximal effect; nearly all actives have a fitted effect of over 35% in size); details: AML-191 viability, CellTiter-Glo luminescence, 48 h
# [11] = BET inhibitor-based combinations targeting novel dependencies in MECOM-rearranged (r) AML: AML-194 cell line (AID 2202237; also: potency is read from the fitted curve at half-maximal effect; nearly all actives have a fitted effect of over 40% in size); details: AML-194 (MECOM-r AML) viability, CellTiter-Glo, 48 h
# [12] = BET inhibitor-based combinations targeting novel dependencies in MECOM-rearranged (r) AML: OCI-AML3 cell line (AID 2202232); details: OCI-AML3 viability, CellTiter-Glo luminescence, 48 h; also: potency is read from the fitted curve at half-maximal effect; nearly all actives have a fitted effect of over 35% in size
smiles,measurement,setting,value
CN(C(=O)Cc1ccccc1)[C@H]1CC[C@@]2(CCCO2)C[C@@H]1N1CCCC1,activation,[1],inactive: 10.7%
Cc1cc([N+](=O)[O-])cc([N+](=O)[O-])c1O,activation,[1],inactive: -18.6%
CN(C)C1(c2ccccc2)CCC2(CC1)OCCc1c2[nH]c2ccc(F)cc12 (stereo unspecified),activation,[1],inactive: 4.77%
same,"activity change, negative = inhibition",[2],inactive: 7.73%
same,"activity change, negative = inhibition",[3],inactive: 103% [at 84.7 µM]
same,"activity change, negative = inhibition",[4],inactive: -4.19%
same,Potency,[5],inactive
CN(C(=O)Cc1ccc(Cl)c(Cl)c1)[C@H]1CC[C@@]2(CCCO2)C[C@@H]1N1CCCC1,activation,[1],inactive: -3.35%
N#Cc1c(-c2ccc(-c3no[n+]([O-])c3C#N)cc2)no[n+]1[O-],"activity change, negative = inhibition",[2],inactive: -89.5%
same,"activity change, negative = inhibition",[4],inactive: -21.4%
CN(C(=O)Cc1ccc(Cl)c(Cl)c1)[C@@H]1CC[C@]2(CCCO2)C[C@H]1N1CCCC1,activation,[1],inactive: -70.9%
same,GFP increase (activation),[6],inactive: 1.75%
same,"activity change, negative = inhibition",[7],inactive: -9%
same,"activity change, negative = inhibition",[3],inactive: -16%
NC(=O)Nc1ccc([As](=O)(O)O)cc1,activation,[1],inactive: -23.4%
CN(C(=O)Cc1ccc(Cl)c(Cl)c1)[C@H]1CCCC[C@@H]1N1CCCC1,activation,[1],inactive: -28.9% and inactive: -32.6%
same,GFP increase (activation),[6],inactive: 11.3% and inactive: 0.981%
same,"activity change, negative = inhibition",[7],inactive: 5% and inactive: -8.56%
same,"activity change, negative = inhibition",[3],inactive: -10.5%
CCNC(C)Cc1ccc2c(c1)OCO2 (stereo unspecified),activation,[1],inactive: 0.565%
CN(C(=O)Cc1ccc(Cl)c(Cl)c1)[C@@H]1CCCC[C@@H]1N1CCCC1,activation,[1],inactive: -36.7%
same,GFP increase (activation),[6],inactive: 0.473%
same,"activity change, negative = inhibition",[7],inactive: -2.05%
same,"activity change, negative = inhibition",[3],inactive: 8.62%
O=C(O[C@H]1CN2CCC1CC2)C1NCc2ccccc2[C@@H]1c1ccccc1 (stereo partly specified),activation,[1],inactive: -2.39%
same,"activity change, negative = inhibition",[2],inactive: 5.08%
same,"activity change, negative = inhibition",[3],inactive: 95.6% [at 84.7 µM]
same,"activity change, negative = inhibition",[4],inactive: 7.87%
N[C@@H](Cc1ccc([N+]([O-])(CCCl)CCCl)cc1)C(=O)O,Potency,[8],active: 6.61 µM
same,Potency,[9],active: 4.17 µM
same,Potency,[5],active: 3.32 µM
same,Potency,[10],active: 5.9 µM
same,Potency,[11],active: 3.32 µM
CCn1c(=O)n([C@@H]2CCN(CC3CCCCCCC3)C[C@H]2CO)c2ccccc21,activation,[1],inactive: -3.34%
same,"activity change, negative = inhibition",[2],inactive: 5.56%
same,"activity change, negative = inhibition",[3],inactive: 88.9% [at 84.7 µM]
same,"activity change, negative = inhibition",[4],inactive: -2.04%
same,Potency,[12],active: 13.2 µM
same,Potency,[5],active: 16.6 µM
CN(C(=O)Cc1ccc(Cl)c(Cl)c1)[C@H]1CCCC[C@H]1N1CCCC1,activation,[1],inactive: -4.77%
same,"activity change, negative = inhibition",[2],inactive: 7.48%
same,"activity change, negative = inhibition",[4],inactive: -11.3%
CN(C(=O)Cc1ccccc1)[C@@H]1CC[C@]2(CCCO2)C[C@H]1N1CCCC1,activation,[1],inactive: 4.22%
same,GFP increase (activation),[6],inactive: 15.9%
same,"activity change, negative = inhibition",[7],inactive: -1.59%
same,"activity change, negative = inhibition",[3],inactive: 4.1%
